{
  "source": "patent EP0520823A2",
  "about": "“Non-substrate peptide inhibitors of farnesyl protein transferase” (MERCK & CO. INC., priority 1991, dated 1992)",
  "test_system": "partially pure bovine brain farnesyl-protein transferase",
  "assay": "Tetrapeptides tested as farnesylation substrates ([3H]FPP, TLC, autoradiography)",
  "assay_type": "biochemical",
  "settings": "peptide 200 µM, 0.5 µM [3H] FPP, 30 min. at 30°C",
  "experimental": "When a peptide was used as the acceptor substrate, there were two changes to the assay: (1) Ras protein was excluded and, (2) the reactions were stopped by the additon of one tenth volume of 0.5 M EDTA. […] After drying under vacuum, the plates were sprayed with […] exposed to X-ray film at -70°C. […] These Rf values reflect TLC conditions using ethylacetate:pyridine: acetic acid:water (10:5:1:3) as the eluent. […] CAIS (Rf=0.84) and CAIM (Rf=0.83)). Quenched reaction mixtures containing peptide, farnesyldiphosphate and farnesyl-protein transferase were separated by TLC followed by visualization of the radioactive species by autoradiography. […] Control peptides having a […] substitution were not substrates. […] Autoradiographic exposure time was overnight (15-20 hr).",
  "data": [
    {"compound": "CC(C)C[C@H](NC(=O)[C@@H](NC(=O)[C@@H](N)CS)C(C)C)C(=O)N[C@@H](CO)C(=O)O", "note": "[CVLS, Cys-Val-Leu-Ser]", "values": [
      {"measurement": "Farnesylation substrate", "value": "+ (+ > 90% [^3H] farnesyl diphosphate converted to [^3H] farnesyl tetrapeptide)"}
    ]}
  ]
}
